System: GST-PHD-BD^N3007A (GST-PHD-BD^mut)
Type: binding, Human
Conditions: Supplementary file 1C, Nuc, N = 2
Source text: Human BPTF (Uniprot Q12830) PHD finger-bromodomain (PHD-BD) and PHD finger were cloned into pGEX6p with an N-terminal Glutathione S-Transferase (GST) tag and a PreScission protease cleavage site (Supplementary file 2A and Figure 1—figure supplement 2). BPTF BD with an N-terminal 6xHistidine (6His) tag and Tobacco Etch Virus (TEV) protease cleavage site was from Addgene (plasmid 39111). The Q5 site-directed mutagenesis kit (New England Biolabs [NEB]) was used for domain addition/removal or single amino acid substitutions. All constructs were expressed in E. coli BL21 (DE3) (Thermo Fisher Scientific or NEB). Cells were grown to OD600 ~1.0 and induced with 0.8 mM IPTG at 18 °C for ~16 hr in LB (or M9 minimal media for NMR). M9 media was supplemented with vitamin (Centrum Adult), 1 g/L ^15NH4Cl, and 5 g/L D-glucose. For constructs containing the BPTF PHD finger all growth media and buffers were supplemented with 100 μM ZnCl2. For purification of BPTF recombinants cells were lysed by sonication, and lysates were incubated with either glutathione agarose (Thermo Fisher Scientific) or Ni-NTA resin (Thermo Fisher Scientific) to respectively enrich for GST- and 6His-tagged proteins. Fusion proteins were eluted with reduced L-glutathione or imidazole as appropriate. […] Protein concentrations were determined by UV-Vis spectroscopy. […]

H3K4me3tri^ac: histone H3 peptide H3K4me3K9acK14acK18ac (NMR version aa 1–34)
LogEC50: -7.935
